Assay results: paper PMC4370192, “Discovery of Specific Inhibitors for Intestinal E. coli β-Glucuronidase through In Silico Virtual Screening” (The Scientific World Journal, 2015)

Target: T1, human βG (hβG) (Homo sapiens, UniProt P08236)
T1 construct: histidine tag (N); made in house; host or cells: E. coli BL21 (DE3)
T1 sequence (P08236 23-651): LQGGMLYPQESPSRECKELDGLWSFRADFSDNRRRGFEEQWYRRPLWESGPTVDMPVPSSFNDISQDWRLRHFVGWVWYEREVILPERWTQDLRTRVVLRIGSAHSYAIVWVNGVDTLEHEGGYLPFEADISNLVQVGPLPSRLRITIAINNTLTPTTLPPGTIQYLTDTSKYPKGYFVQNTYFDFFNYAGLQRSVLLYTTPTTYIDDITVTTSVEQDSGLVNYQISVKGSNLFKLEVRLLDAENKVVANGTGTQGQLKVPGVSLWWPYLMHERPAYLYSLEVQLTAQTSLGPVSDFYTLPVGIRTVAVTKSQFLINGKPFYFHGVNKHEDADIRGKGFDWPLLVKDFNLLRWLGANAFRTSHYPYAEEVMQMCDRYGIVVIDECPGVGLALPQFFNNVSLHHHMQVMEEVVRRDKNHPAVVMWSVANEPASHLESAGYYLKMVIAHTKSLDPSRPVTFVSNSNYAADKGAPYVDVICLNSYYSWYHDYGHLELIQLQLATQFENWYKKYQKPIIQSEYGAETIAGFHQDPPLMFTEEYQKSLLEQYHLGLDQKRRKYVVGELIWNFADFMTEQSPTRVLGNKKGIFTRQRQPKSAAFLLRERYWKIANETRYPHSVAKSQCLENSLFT
Experiment: In vitro βG-activity assay (pNPG hydrolysis), hβG
Format: biochemical
Settings: 10 μM compound, Figure 2
Method: Plasmid pRESTB containing βG gene and a histidine tag at the N-terminus was constructed as described. Recombinant βG (human and E. coli) was produced by isopropyl β-D-thiogalactopyranoside (IPTG) induction of BL21 (DE3) bacteria. βG was purified from bacterial supernatants by affinity chromatography on nickels Sepharose 6 Fast Flow (GE Healthcare). The column was washed by phosphate-buffered saline (PBS), with 50 mM imidazole, and βG was eluted by PBS with 250 mM imidazole. The purified βG was desalted on a Sephadex G-25 column equilibrated with PBS and stored at −80°C.
The candidate compounds were purchased from SPECS (The Netherlands). Each candidate was provided as a solid power and dissolved in 100% DMSO (Sigma-Aldrich) to 10 mM as stock. […] Each reaction consisted of 3.75 ng purified βG, 50 μM compound, and 5 mM pNPG in PBS containing 10% DMSO and 0.05% BSA (Sigma-Aldrich). βG-activities were measured by color development of pNP detected on a microplate reader at OD 405 nm.
(Table S1) The candidate compounds were purchased from SPECS (Zoetermeer, The Netherlands). […] Each reaction consisted of 3.75 ng purified βG, 50 µM compound, and 5 mM pNPG in PBS containing 10% DMSO and 0.05% BSA (Sigma-Aldrich). βG-activities were measured by color development of pNP detected on a microplate reader at OD 405 nm. […]

## O=C(O)[C@@H](O)[C@H]1OC(=O)[C@H](O)[C@H]1O [D-saccharic acid 1,4-lactone, reference compound]
  inhibition of hβG versus eβG: higher inhibition on hβG
